## scFv variants of Ab-14 (heavy chain) against a SARS-CoV-2 spike peptide

Target peptide (SARS-CoV-2 spike, HR2 region): PDVDLGDISGINAS

The variants keep the light chain, the linker and the frameworks of Ab-14 (scFv order VH, a (GGGGS)3 linker, VL).
VH: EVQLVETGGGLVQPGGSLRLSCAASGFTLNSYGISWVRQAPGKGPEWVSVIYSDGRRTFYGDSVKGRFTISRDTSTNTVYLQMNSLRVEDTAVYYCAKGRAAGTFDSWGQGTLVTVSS
VL: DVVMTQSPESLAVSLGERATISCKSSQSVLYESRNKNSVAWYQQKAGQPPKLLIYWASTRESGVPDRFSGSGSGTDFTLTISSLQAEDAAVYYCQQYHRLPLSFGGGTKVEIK

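Phage display of a naive human antibody library on the peptide gave the parent. The library (AAYL49) carries one to three amino acid substitutions per variant, with no insertions or deletions. In AlphaSeq, yeast of one mating type display the scFv and yeast of the other type display the target. Mating (16 h, 30 °C) was followed by selection of diploids and sequencing of their barcodes. Read counts were normalised to the haploid input and turned into Kd by a linear fit to BCL2-family pairs of known affinity, for each replicate. Each pool was mated in three replicate cultures.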

Each variant is given by its three heavy chain CDRs, as the data file delimits them; those of the parent are GFTLNSYGIS, VIYSDGRRTFYGDSVK, GRAAGTFDS. The read-out is the apparent dissociation constant on a log10 scale (nM): the lower, the stronger. A mean of the replicates is given; it leaves out those without a signal. Where no diploid with the target was found in that replicate, the entry reads "ND": below detection, most likely a poor binder, though not proof of it. Three control strains display no target. For library AAYL49, 15% of the pairings with them gave a signal, with a median of 4.06 and one signal in twenty below 2.83, so weak values seen in few replicates may be background. Also given: how often the same scFv was detected with the empty control strains, with their mean in brackets.

| # | CDR-H1 | CDR-H2 | CDR-H3 | replicates, log10 nM | log10 Kd (nM), mean | empty controls |
|---|---|---|---|---|---|---|
| 1 | GFTLNSWGIS | VIYSDGRRTMYGDSKK | GRAAGTFDS | 5.51 2.89 ND | 4.20 | 1 of 9 (3.47) |
| 2 | GHTLNKYGIS | VIYSDGRRTFYGDSVK | GRAAGFFDS | ND ND ND | ND | 0 of 9 |
| 3 | GFTLNSYGIP | VIYSDGRRTFYDDSVK | GRAAGTFDS | ND ND ND | ND | 0 of 9 |
| 4 | GFTGNSYGIS | VIYSDGRATFYGDQVK | GRAAGTFDS | ND ND ND | ND | 0 of 9 |
| 5 | GFTLNSYGIS | VIYSDVRRTFYGDRVK | GRAAGTFDI | ND 3.92 ND | 3.92 | 1 of 9 (2.93) |
| 6 | GFTLNSYGIS | VIYSDGRRTFYGDWGK | GRAAGTFFS | ND ND ND | ND | 0 of 9 |
| 7 | GFGLCSYGIS | VIYSDGRRIFYGDSVK | GRAAGTFDS | 3.61 3.71 5.43 | 4.25 | 0 of 9 |
| 8 | GFTNNSYGIS | VIYSDGRRTFYGDSVS | GRAAPTFDS | ND 4.18 ND | 4.18 | 1 of 9 (4.38) |
| 9 | GFDLNSYGIS | VIYSDGRRTFYGDSVK | GRAARTFPS | ND ND ND | ND | 0 of 9 |
| 10 | GFTLKSYGIS | VIYSDGRRTFHGDSVK | GRANGTFDS | ND ND ND | ND | 0 of 9 |
| 11 | GFTLNSYGIS | VIYSDGRSTFYGDKVK | GRAAGTSDS | ND 3.36 ND | 3.36 | 1 of 9 (4.13) |
| 12 | GFTLNSYGIS | VIYSDGRRTNYGDSEK | GRAAMTFDS | ND ND ND | ND | 0 of 9 |
| 13 | GFTLNSYGIS | TITSDGRRTFYGDSVK | GRAAGMFDS | ND ND 4.50 | 4.50 | 3 of 9 (4.46) |
| 14 | GFTLNSYGIS | VIRSDGRRTFYMDSVK | GRAQGTFDS | ND ND ND | ND | 1 of 9 (3.25) |
| 15 | GFTLNSYGIS | CIYSDGRRTWYGDSVK | GRPAGTFDS | ND 3.69 ND | 3.69 | 0 of 9 |
| 16 | GFTLISYGIS | VIYSDGRRTFAGDSVK | GRAAGTFDQ | 6.18 4.85 ND | 5.51 | 4 of 9 (4.41) |
| 17 | GFTCNSYGIS | VIYSDGRRTDYGDSVK | GRAKGTFDS | ND ND ND | ND | 1 of 9 (3.66) |
| 18 | GFTLNSYGTS | VIKSDGRRTFNGDSVK | GRAAGTFDS | ND ND ND | ND | 2 of 9 (4.04) |
| 19 | GFPTNSYGIS | VIYSDGRRTFAGDSVK | GRAAGTFDS | ND ND ND | ND | 3 of 9 (4.17) |
| 20 | GFTINSYGIS | VIESDGRRTFYGDSVK | GRAAGTFDS | ND ND 5.06 | 5.06 | 1 of 9 (2.36) |
| 21 | GFTLNSYGIS | CIYSDGRRTFYGDSVK | GRAAGTFDS | 2.90 2.91 3.69 | 3.17 | 5 of 9 (4.24) |
| 22 | GFTLNSYGIS | VIYSDGWRTFYGDSVK | GRAARTTDS | ND ND ND | ND | 0 of 9 |
| 23 | GFTLNSYGAS | VIYSDGRRTFYGDSVK | GRAPGTFGS | ND ND ND | ND | 0 of 9 |
| 24 | GFTLNSYGIS | VIYSDGRRTFYGDSVK | GRLAGTFNW | ND 2.76 ND | 2.76 | 1 of 9 (2.99) |
| 25 | GFSLNSYGIS | CIYSDGRRTFTGDSVK | GRAAGTFDS | ND ND ND | ND | 1 of 9 (3.61) |
| 26 | GFTLNSYGIS | VHYSDLRRTFYGDSVT | GRAAGTFDS | ND ND ND | ND | 1 of 9 (3.26) |
| 27 | WFRLNSYGIS | VIYSCGRRTFYGDSVK | GRAAGTFDS | 4.72 3.98 ND | 4.35 | 4 of 9 (3.40) |
| 28 | GFTLNSYGIS | VIYSDGRRTFYGDAVK | GRAEGTFGS | 2.91 2.61 3.06 | 2.86 | 1 of 9 (5.71) |
| 29 | GFTLNSYGIS | VIYSDGRRTFPGDSVK | GRAAGTFTP | ND ND ND | ND | 1 of 9 (3.76) |
| 30 | GFGLNSYGIS | VIYSDGRRTFYGDSVK | GRAAHKFDS | 3.38 2.64 2.39 | 2.80 | 2 of 9 (3.69) |

Repeated from above, the 2 best binders with a signal in all replicates:

CDR-H1,CDR-H2,CDR-H3,"replicates, log10 nM","log10 Kd (nM), mean",empty controls
GFGLNSYGIS,VIYSDGRRTFYGDSVK,GRAAHKFDS,3.38 2.64 2.39,2.80,2 of 9 (3.69)
GFTLNSYGIS,VIYSDGRRTFYGDAVK,GRAEGTFGS,2.91 2.61 3.06,2.86,1 of 9 (5.71)

From the AlphaSeq antibody data of Engelhart et al. 2022 (doi:10.1038/s41597-022-01779-4), copy in the FLAb collection.